From PMC11208336 (Frontiers in Cellular and Infection Microbiology, 2024)

Key:
HmuY^Pe [1] = biological target: T1, HmuY^Pe (Porphyromonas endodontalis, UniProt C3JC46, H128A); assay: biochemical
T1 construct: gene POREN0001_0444

HmuY^Pe [2] = biological target: T2, HmuY^Pe (Porphyromonas endodontalis, UniProt C3JC46); assay: biochemical
T2 construct: gene POREN0001_0444

## C=CC1=C(C)C2=Cc3c(C=C)c(C)c4[n]3[Fe]([Cl])[n]3c(c(C)c(CCC(=O)O)c3=CC3=NC(=C4)C(C)=C3CCC(=O)O)=CC1=N2 [Fe(III)heme]
HmuY^Pe [1]
  Kd: 8.38 µM
HmuY^Pe [2]
  Kd: 0.245 µM
